Where “and” joins values, the source holds several entries; their conditions need not be identical. Equal values may be shown once.
Columns and labels:
Nociceptin receptor = Nociceptin receptor (Homo sapiens, UniProt P41146); experiment: Displacement of [3H]NOP from human NOP receptor expressed in HEK293 cells
Mu-type opioid receptor = Mu-type opioid receptor (Homo sapiens, UniProt P35372); experiment: Displacement of [3H]naloxone from mu opioid receptor expressed in BHK cells

Chains of the proteins cited; added tags and fusions are not shown. Lines headed by an entry give the natural chain unless they say otherwise; changes in a name come on top.
UniProt P41146: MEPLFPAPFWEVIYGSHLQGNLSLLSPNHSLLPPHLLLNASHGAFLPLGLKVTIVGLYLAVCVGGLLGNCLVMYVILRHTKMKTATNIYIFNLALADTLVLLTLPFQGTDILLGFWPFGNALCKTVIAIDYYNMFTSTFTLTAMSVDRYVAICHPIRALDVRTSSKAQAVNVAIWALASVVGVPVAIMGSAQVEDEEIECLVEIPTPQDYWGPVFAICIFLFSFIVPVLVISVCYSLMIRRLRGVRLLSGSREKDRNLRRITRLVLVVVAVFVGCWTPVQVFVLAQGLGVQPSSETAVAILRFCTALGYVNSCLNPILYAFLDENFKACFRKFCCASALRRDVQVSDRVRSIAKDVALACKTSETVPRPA
UniProt P35372, whole entry, looked up: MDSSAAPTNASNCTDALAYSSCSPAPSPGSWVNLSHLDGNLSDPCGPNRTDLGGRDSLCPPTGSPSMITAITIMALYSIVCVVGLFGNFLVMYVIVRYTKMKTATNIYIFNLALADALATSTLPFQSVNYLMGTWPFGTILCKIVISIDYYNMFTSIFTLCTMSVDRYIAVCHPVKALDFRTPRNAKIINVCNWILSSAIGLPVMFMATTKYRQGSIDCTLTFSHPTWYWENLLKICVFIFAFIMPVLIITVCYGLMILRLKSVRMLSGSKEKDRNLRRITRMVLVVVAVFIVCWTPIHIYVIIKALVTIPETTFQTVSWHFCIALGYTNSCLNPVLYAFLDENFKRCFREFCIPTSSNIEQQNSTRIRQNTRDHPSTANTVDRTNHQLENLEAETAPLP

SMILES | IC50 (Nociceptin receptor) | IC50 (Mu-type opioid receptor)
Cc1ccccc1C1(N2CCC3(CC2)C(=O)NCC3c2ccc(F)cc2)CCCCC1 (racemic) | > 10 µM | 3.85 µM
CCCC1CNC(=O)C12CCN(C1(c3ccc(F)cc3)CCCCC1)CC2 (racemic) | – | 3.03 µM
Cc1ccc(C2(N3CCC4(CC3)C(=O)NCC4c3ccccc3)CCCCC2)cc1 (stereo not drawn) | > 10 µM | 9.12 µM and 11.9 µM
O=C1NCC(c2ccccc2)C12CCN(C1(c3cccc(F)c3)CCCCC1)CC2 (stereo not drawn) | > 10 µM | 8.04 µM and 13.5 µM
O=C1NCC(c2ccc(F)cc2)C12CCN(C1(c3ccc(F)cc3)CCCCC1)CC2 (stereo not drawn) | > 10 µM | 7.8 µM and > 10 µM and 7.4 µM
Cc1cccc(C2(N3CCC4(CC3)C(=O)NCC4c3ccc(F)cc3)CCCCC2)c1 (stereo not drawn) | > 10 µM | 7.83 µM and 24.8 µM
O=C1NCC(c2ccccc2)C12CCN(C1(c3ccccc3)CCCCC1)CC2 (stereo not drawn) | 6.15 µM and > 10 µM | 7.64 µM and 5.5 µM
CCCC1CNC(=O)C12CCN(C1(c3ccccc3)CCCCC1)CC2 (stereo not drawn) | – | 2.76 µM and 2.73 µM and 1.87 µM
O=C1NCC(c2ccc(F)cc2)C12CCN(C1(c3cccc(F)c3)CCCCC1)CC2 (racemic) | > 10 µM | 7.18 µM
O=C1NCC(c2ccccc2)C12CCN(C1(c3ccc(Cl)cc3)CCCCC1)CC2 (stereo not drawn) | > 10 µM | 19.8 µM and 3.6 µM

Source: ChEMBL document CHEMBL1145308 (Bioorg Med Chem Lett, 2006)
